The source of these data is patent publication US9868746B2, “Substituted 5-aminothieno[2,3-C]pyridazine-6-carboxamide analogs as positive allosteric modulators of the muscarinic acetylcholine receptor M4” (Vanderbilt University, priority 2012, dated 2018).

Protein sequences, listed by entry. Tags and fused reporters are not part of them.
UniProt P08173, whole entry: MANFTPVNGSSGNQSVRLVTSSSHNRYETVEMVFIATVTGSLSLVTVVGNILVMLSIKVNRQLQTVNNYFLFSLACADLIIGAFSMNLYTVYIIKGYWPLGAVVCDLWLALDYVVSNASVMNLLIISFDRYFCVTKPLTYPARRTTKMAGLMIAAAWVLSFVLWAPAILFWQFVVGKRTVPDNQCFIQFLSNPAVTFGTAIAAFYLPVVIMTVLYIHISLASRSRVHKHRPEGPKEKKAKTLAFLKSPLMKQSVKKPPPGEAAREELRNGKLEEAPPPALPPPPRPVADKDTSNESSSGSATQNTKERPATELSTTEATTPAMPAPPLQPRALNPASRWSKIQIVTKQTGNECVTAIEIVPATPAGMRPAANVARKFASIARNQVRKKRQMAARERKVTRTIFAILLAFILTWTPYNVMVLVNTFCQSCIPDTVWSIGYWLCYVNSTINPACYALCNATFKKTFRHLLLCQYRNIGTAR

The assay concerns the target T1, mAChR M4 (Homo sapiens, UniProt P08173).
T1 construct: expressed in transfected cells; host or cells: CHO-K1 cells stably transfected with M4 cDNA and chimeric G-protein Gqi5
Briefly: mAChR M4 cell-based functional assay (calcium mobilization, potentiation of EC20 acetylcholine response). The conditions noted are these: >10,000 estimated for low potency compounds without plateau.

The term EC50 denotes the concentration at which the effect is half-maximal. As to `Cc1nnc2sc(C(=O)NCc3ccc(S(=O)(=O)C(F)(F)F)cc3)c(N)c2c1C` [Example B66], the EC50 was 0.024 µM.
